Values quoted from earlier work, collected in patent US6069167A, “Use of antioxidant agents to treat cholestatic liver disease” (priority 1997, dated 2000).

Experiments:
[1] = cited from earlier work
[2] = cited from earlier work; remark: listed apart in the source

D-alpha-tocopheryl polyethylene glycol-1000 succinate [TPGS]
Absorption during severe cholestasis [1]: the only form of Vitamin E that is absorbed during severe cholestasis | Intestinal absorption of other fat-soluble substances (cyclosporin, Vitamin D) ([1]; when bile flow is impaired): can improve the intestinal absorption of other fat-soluble substances | Micelle formation ([2]; absence of bile salts): form micelles in the absence of bile salts | Water solubility [2]: uniquely water-soluble
